Bioassay records (PubChem)
Cneo AK release – causes C. neoformans cell lysis; adenylate kinase release luminescence, 4 h; normalised: neutral wells 0, clomiphene wells 100; lysis activity, % at 15 µM; actives 0.2% (n = 360,000); AID 651654;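 active = mean lysis activity across replicates of at least 80%, whatever share of replicates individually reach that level; inactive = mean lysis activity below 80%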
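Test system: log-phase Cryptococcus neoformans yeast cells. Input: 5 × 10^6 yeast cells/mL. Medium: fresh YPD growth medium. Doses: single dose. Incubation: static 4 h at 37 °C with compound, 1 h detection. Measured by: luminescent adenylate kinase detection reagent. Read-out: signal increase indicating cell lysis. Benchmarks: Clomiphene.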
FN deposit inh – fibronectin deposition inhibition; AH1F fibroblasts, Alexa488-fibronectin deposition fluorescence, overnight; inhibition, % at 12.6 µM; actives 0.086% (n = 350,000); AID 743247;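 active = mean inhibition across replicates of 30% or more, regardless of how many single replicates reach that level; inconclusive = mean under 30% yet at least half of replicates reach 30%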
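test system = AH1F fibroblasts assembling fluorescent fibronectin matrix | quantity = 10000 AH1F cells per well | buffer or medium = DMEM plus 2% serum, read in PBS | doses = single dose, pinned | incubation = 1 h cell attachment, overnight exposure to compound and label | detection = fluorescence at 485 nm excitation, 525 nm emission | read-out basis = inhibition from reduced deposited-fibronectin fluorescence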
PGC1a acetyl inh – lowers PGC1a acetylation signal in U2OS cells | AlphaScreen anti-acetyl-lysine; with virally co-expressed GCN5 acetyltransferase | inhibition, % at 15.6 µM | actives 0.17% (n = 350,000);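 active = every replicate shows inhibition of at least 40%; inconclusive = mean inhibition at least 40% but some replicate below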
miR122 inh – miR-122 inhibition in Huh7 cells; AID 602342; Huh7 miR-122 Renilla luciferase sensor, 48 h; neutral wells = 0, positive control = 100; actives 0.3% (n = 340,000); activation (reporter increase), % at 12.5 µM;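 active = mean replicate activation score at least 90 and every replicate individually at or above 90; inconclusive = only one of the two criteria met; inactive = neither criterion met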;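 also: higher luciferase means less miR-122 activity so hits act as miR-122 inhibitors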
Env fusion inh – HIV envelope-mediated fusion inhibition. HeLa-JRFL Env/CEM21 cell fusion, luciferase. inhibition, % at 12.3 µM. actives 1.1% (n = 360,000). AID 651610;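 active = mean replicate inhibition score of at least 50 and every replicate individually at or above 50; inconclusive = only one of the two criteria met; inactive = mean below 50 and not all replicates reaching 50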
Yeast UUG start – modulators of start codon recognition fidelity in yeast; AID 602363; activity score, % at 18.7 µM; S. cerevisiae UUG-firefly luciferase reporter, luminescence/redox ratio; actives 0.13% (n = 350,000);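 active = replicate mean at a twofold rise or more, about +100% in these data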;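 note: firefly luciferase made from a UUG start codon reports start codon fidelity; reporter light over untreated wells divided by growth signal over untreated wells; some hits fall short of that in this replicate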
Hits are given with their value; i = inactive; ? = inconclusive; nt = not tested or not shown. Rows were chosen to be rich in hits. Some 1.5% of all compounds tested hit in one or more screens of this group.

SMILES	Cneo AK release	FN deposit inh	PGC1a acetyl inh	miR122 inh	Env fusion inh	Yeast UUG start
COc1cc(OC)c(-c2noc(C(=O)OC(C)(C)C)c2C(=O)OC(C)(C)C)c(OC)c1	nt	i	nt	nt	i	nt
Cn1nnnc1SCc1nnc(-c2ccc(Cl)cc2)o1	i	i	i	i	i	i
CN(C)c1ccc(-c2ccnc3c2CC(C)(C(=O)Nc2cccc(OC(F)(F)F)c2)O3)cc1 (stereo not given)	i	i	nt	i	i	i
CC1(C(=O)Nc2cccc(OC(F)(F)F)c2)Cc2c(-c3ccc4c(c3)OCO4)ccnc2O1 (stereo not given)	i	33.8	i	i	i	i
CC(C)NC(=O)N[C@H]1CC[C@@H](CCNC(=O)C2CC2)O[C@H]1CO	92.2	i	i	nt	i	i
CC(C)NC(=O)N[C@@H]1CC[C@@H](CCNC(=O)C2CC2)O[C@H]1CO	i	i	i	nt	i	i
CC(C)NC(=O)N[C@H]1CC[C@H](CCNC(=O)C2CC2)O[C@H]1CO	i	i	i	nt	i	i
CC(C)NC(=O)N[C@H]1CC[C@@H](CCNC(=O)C2CC2)O[C@@H]1CO	93.2	i	i	nt	i	i
COc1cccc(NS(=O)(=O)c2cc(C)sc2C)c1	i	nt	i	121.4	nt	i
CCOc1ccc(OCCCCn2cnc3ccccc3c2=O)cc1	i	i	i	i	i	i
O=C(NCCN1CCCCC1)[C@@H]1N[C@@H]2c3ccc(-c4ccncc4)c(=O)n3C[C@@H]2[C@H]1CO	102.6	nt	nt	i	nt	nt
O=C(NCCN1CCCCC1)[C@H]1N[C@H]2c3ccc(-c4cccnc4)c(=O)n3C[C@H]2[C@@H]1CO	i	i	nt	nt	i	nt
C=CCC[C@H](Cc1ccc(F)cc1)C(=O)OC[C@H](Cc1c[nH]c2ccccc12)NC(=O)[C@@H](CC=C)CC(=O)N[C@@H](CO)Cc1ccccc1	i	31.5	nt	i	i	i
C=CCC[C@@H](Cc1ccc(F)cc1)C(=O)OC[C@H](Cc1c[nH]c2ccccc12)NC(=O)[C@@H](CC=C)CC(=O)N[C@H](CO)Cc1ccccc1	i	i	nt	i	i	i
C=CC[C@H](CC(=O)NCCO)C(=O)N[C@H](COC(=O)[C@@H](CC=C)Cc1ccc(F)cc1)c1ccccc1	i	i	nt	i	i	i
C=CC[C@H](CC(=O)NCCO)C(=O)N[C@@H](COC(=O)[C@@H](CC=C)Cc1ccc(F)cc1)Cc1ccccc1	i	i	i	i	79.5	i
C=CC[C@H](CC(=O)NCCO)C(=O)N[C@H](COC(=O)[C@@H](CC=C)Cc1ccc(F)cc1)Cc1ccccc1	i	i	i	i	59.1	i
COc1ccccc1CNS(=O)(=O)c1ccc(-c2cc(C)no2)cc1	i	i	i	?	i	i
OCCN1CCN(CC(O)COc2ccc3ccccc3c2)CC1 (stereo not given)	i	i	i	i	nt	i
COCCn1c(SC(C)C(=O)Nc2ncc(Cl)cc2Cl)nc2ccccc21 (stereo not given)	nt	nt	43.6	i	nt	nt
Cc1ncoc1C(=O)NCc1ccccc1Cl	nt	nt	i	i	nt	nt
CC1=CC(=O)N(c2cccc(C(F)(F)F)c2)C1c1ccc(Cl)cc1 (stereo not given)	i	i	i	i	65.8	i
Cc1noc(C)c1S(=O)(=O)Nc1ccc2c(c1)C(=O)N([C@H](C)CO)C[C@@H](C)[C@@H](CN(C)Cc1ccc3c(c1)OCO3)OCCCC[C@H](C)O2	i	nt	i	i	i	i
Cc1noc(C)c1S(=O)(=O)Nc1ccc2c(c1)C(=O)N([C@@H](C)CO)C[C@@H](C)[C@H](CN(C)Cc1ccc3c(c1)OCO3)OCCCC[C@H](C)O2	101.0	nt	i	i	i	i
Cc1noc(C)c1S(=O)(=O)Nc1ccc2c(c1)C(=O)N([C@H](C)CO)C[C@@H](C)[C@H](CN(C)Cc1ccccc1)OCCCC[C@@H](C)O2	i	i	i	i	i	i
Cc1noc(C)c1S(=O)(=O)Nc1ccc2c(c1)C(=O)N([C@H](C)CO)C[C@@H](C)[C@H](CN(C)Cc1ccccc1)OCCCC[C@H](C)O2	100.5	i	i	i	i	i
C[C@@H]1CN([C@@H](C)CO)C(=O)c2cc(C#CC(C)(C)O)cnc2O[C@@H]1CN(C)C(=O)c1ccccc1F	i	i	i	i	i	i
